Assay results published in PMC10740956, “A Multitarget Approach against Neuroinflammation: Alkyl Substituted Coumarins as Inhibitors of Enzymes Involved in Neurodegeneration” (Antioxidants, 2023).

Legend:
hMAO-B = biological target: T1, hMAO-B (Homo sapiens, UniProt P27338); experiment: hMAO-B inhibition, recombinant enzyme, kynuramine substrate, fluorescence; type: biochemical; conditions: IC50 hMAO-A/IC50 hMAO-B
T1 construct: purchased Sigma-Aldrich

hCA IX = hCA IX (Homo sapiens, UniProt Q16790); experiment: stopped flow CO2 hydrase assay, hCA IX; type: biochemical; conditions: mean of 3 different assays

C#CCOc1ccc2ccc(=O)oc2c1 [Compound 5, 7-(Prop-2-ynyloxy)-2H-chromen-2-one]
SI (selectivity index for hMAO-B over hMAO-A) (hMAO-B): 1.99 | Ki (hCA IX): 1350 nM

CCC#CCOc1ccc2ccc(=O)oc2c1 [Compound 7, 7-(Pent-2-yn-1-yloxy)-2H-chromen-2-one]
SI (selectivity index for hMAO-B over hMAO-A) (hMAO-B): 1396

C#CCCCOc1ccc2ccc(=O)oc2c1 [Compound 8, 7-(Pent-4-yn-1-yloxy)-2H-chromen-2-one]
SI (selectivity index for hMAO-B over hMAO-A) (hMAO-B): 11.2
